Laboratory results published in patent US6897199B2, “Pharmaceutically acceptable salts of phenoxazine and phenothiazine compounds” (Dr. Reddy's Laboratories Ltd., priority 2001, dated 2005).
Where a name gives a salt, the structure may show the parent alone.

Molecular target: T1, hPPARα (Homo sapiens, UniProt Q07869)
T1 sequence (Q07869 239-466 limits assumed): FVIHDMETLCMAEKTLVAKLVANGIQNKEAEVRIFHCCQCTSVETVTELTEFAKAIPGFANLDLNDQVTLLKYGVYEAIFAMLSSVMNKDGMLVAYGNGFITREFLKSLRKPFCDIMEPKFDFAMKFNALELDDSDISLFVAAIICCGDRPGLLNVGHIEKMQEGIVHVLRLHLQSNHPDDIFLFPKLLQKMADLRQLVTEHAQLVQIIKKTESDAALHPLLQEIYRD
Settings: compound concentration 50 μM; luciferase activity, HEK-293 cells

PPARα	SMILES
4.0	CCO[C@@H](Cc1ccc(OCCN2c3ccccc3Oc3ccccc32)cc1)C(=O)O [Example 2, (−)-Di 3-[4-[2-(Phenoxazin-10-yl)ethoxy]phenyl]-2-ethoxypropanoic acid Piperazine salt]
4.3	CCO[C@@H](Cc1ccc(OCCN2c3ccccc3Oc3ccccc32)cc1)C(=O)O [Example 5, (−)-3-[4-[2-(Phenoxazin-10-yl)ethoxy]phenyl]-2-ethoxypropanoic acid pyrrolidine salt]
3.43	CCO[C@@H](Cc1ccc(OCCN2c3ccccc3Oc3ccccc32)cc1)C(=O)O [Example 7, (−)-3-[4-[2-(Phenoxazin-10-yl)ethoxy]phenyl]-2-ethoxypropanoic acid 1-phenyl ethyl amine salt]
4.2	CCO[C@@H](Cc1ccc(OCCN2c3ccccc3Oc3ccccc32)cc1)C(=O)O [Example 9, (−)-3-[4-[2-(Phenoxazin-10-yl)ethoxy]phenyl]-2-ethoxypropanoic acid phenylalanine benzyl ester salt]

SMILES	PPARα
CCOC(Cc1ccc(OCCN2c3ccccc3Oc3ccccc32)cc1)C(=O)O.c1c[nH]cn1 (single isomer, unassigned; (-)) [Example 1, (−)-3-[4-[2-(Phenoxazin-10-yl)ethoxy]phenyl]-2-ethoxypropanoic acid imidazole salt]	4.5
